The values that follow are results of earlier work, collected in paper PMC3890056.

Amino acid sequences for entries named in this document (tags omitted). Residues count along the entry.
UniProt P19235, 25-250: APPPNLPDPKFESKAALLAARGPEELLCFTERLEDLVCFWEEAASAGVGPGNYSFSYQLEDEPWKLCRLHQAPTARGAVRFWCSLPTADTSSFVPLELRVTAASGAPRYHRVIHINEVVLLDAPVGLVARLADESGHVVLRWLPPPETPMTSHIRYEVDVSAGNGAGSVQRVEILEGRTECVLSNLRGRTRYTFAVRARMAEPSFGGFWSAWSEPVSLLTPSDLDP

The Kd is the concentration at which binding is half-saturated.

This data set concerns the target erythropoietin (Homo sapiens) (UniProt P01588). Put plainly: 125I-rHuEpo binding.

As to “erythropoietin receptor (from UniProt P19235)”, the equilibrium dissociation constant (Kd) is 0.1 nM.
